Test results: patent US20150183802A1, “TRICYCLIC SULFONAMIDE DERIVATIVES” (NOVARTIS AG, priority 2013, published 2015)

Amino acid sequences for entries named in this document (tags omitted).
UniProt Q15858, whole entry: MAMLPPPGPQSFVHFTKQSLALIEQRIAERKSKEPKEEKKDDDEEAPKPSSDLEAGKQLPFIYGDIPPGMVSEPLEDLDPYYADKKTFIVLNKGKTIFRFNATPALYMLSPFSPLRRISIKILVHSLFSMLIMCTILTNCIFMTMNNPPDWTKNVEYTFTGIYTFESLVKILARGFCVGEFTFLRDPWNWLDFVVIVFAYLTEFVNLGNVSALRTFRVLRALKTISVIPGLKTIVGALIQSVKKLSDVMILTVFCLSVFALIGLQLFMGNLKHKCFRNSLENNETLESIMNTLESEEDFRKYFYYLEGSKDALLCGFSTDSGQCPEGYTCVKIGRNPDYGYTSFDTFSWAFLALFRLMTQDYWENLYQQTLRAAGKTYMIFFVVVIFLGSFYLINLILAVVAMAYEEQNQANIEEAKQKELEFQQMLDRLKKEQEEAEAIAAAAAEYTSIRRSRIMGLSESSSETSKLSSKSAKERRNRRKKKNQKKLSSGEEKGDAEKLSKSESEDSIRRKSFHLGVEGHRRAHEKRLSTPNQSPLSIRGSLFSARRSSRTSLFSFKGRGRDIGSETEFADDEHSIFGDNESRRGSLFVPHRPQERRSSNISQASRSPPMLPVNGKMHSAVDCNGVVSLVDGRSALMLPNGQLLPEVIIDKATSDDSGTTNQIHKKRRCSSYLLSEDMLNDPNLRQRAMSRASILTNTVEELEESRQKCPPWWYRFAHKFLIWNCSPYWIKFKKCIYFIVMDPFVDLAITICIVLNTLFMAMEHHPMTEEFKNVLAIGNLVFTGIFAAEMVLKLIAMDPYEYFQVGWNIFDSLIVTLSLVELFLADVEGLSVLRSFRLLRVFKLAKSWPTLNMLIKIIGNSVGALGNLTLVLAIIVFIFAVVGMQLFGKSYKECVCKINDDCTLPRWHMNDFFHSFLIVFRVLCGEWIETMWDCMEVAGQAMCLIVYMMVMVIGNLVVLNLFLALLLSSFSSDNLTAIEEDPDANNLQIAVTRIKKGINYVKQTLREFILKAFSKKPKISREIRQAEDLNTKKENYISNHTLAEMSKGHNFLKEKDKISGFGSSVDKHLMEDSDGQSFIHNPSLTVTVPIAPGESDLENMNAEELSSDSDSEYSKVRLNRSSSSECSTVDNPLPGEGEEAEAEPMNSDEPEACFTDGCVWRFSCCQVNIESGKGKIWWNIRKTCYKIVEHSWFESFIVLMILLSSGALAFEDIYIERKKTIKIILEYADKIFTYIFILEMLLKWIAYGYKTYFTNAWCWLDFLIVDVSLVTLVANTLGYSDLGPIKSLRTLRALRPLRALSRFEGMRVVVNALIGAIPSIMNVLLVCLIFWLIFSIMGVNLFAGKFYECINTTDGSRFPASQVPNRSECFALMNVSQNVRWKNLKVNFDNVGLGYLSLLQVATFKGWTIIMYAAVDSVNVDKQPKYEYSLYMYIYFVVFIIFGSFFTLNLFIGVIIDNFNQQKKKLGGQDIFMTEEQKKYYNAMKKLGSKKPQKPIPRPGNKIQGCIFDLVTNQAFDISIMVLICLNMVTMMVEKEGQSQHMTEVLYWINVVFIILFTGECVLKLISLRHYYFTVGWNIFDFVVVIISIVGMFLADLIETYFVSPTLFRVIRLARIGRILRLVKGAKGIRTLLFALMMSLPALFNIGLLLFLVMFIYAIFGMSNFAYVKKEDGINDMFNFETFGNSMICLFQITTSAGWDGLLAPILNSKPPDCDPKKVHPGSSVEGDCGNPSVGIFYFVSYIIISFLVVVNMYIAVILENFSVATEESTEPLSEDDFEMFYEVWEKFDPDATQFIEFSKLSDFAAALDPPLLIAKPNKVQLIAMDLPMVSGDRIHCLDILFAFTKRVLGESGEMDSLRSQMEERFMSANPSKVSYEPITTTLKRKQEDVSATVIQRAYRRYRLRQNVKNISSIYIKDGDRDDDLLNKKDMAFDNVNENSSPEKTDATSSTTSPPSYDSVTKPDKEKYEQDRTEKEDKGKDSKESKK

Target: hNav1.7 channels (Homo sapiens, UniProt Q15858)
Assay: hNav1.7 channel in vitro patch-clamp assay
Conditions: stable HEK293 cell line expressing hNav1.7; whole cell patch-clamp (QPatch HTX and/or conventional), room temperature; voltage protocol not given
Procedure: hNav1.7 Channel In Vitro Patch-Clamp Assay
Cells: Sable HEK293 (human embryonic kidney) cell line expressing hNav1.7 channels was used in the assay. The cell line was obtained from Millipore (Millipore Corporation, MA).
Patch-clamp recordings: The recordings were performed on QPatch HTX (Sophion Bioscience, Denmark) and/or conventional patch-clamp (Axon Multiclamp 700B systems, Molecular Devices, CA) platforms at room temperature, using whole cell patch-clamp techniques. The composition of extracellular solution was (in mM): HEPES 5, NaCl 40, KCl 3, CaCl2 1, MgCl2 1, Choline Chloride 100. Adjust pH to 7.2 with 1N NaOH, osmolarity to 300-310 mOsm with sucrose. The composition of intracellular solution was (in mM): HEPES 10, NaCl 10, Na2ATP 1, MgCl2 2, KF 135, EGTA 10. Adjust pH to 7.2 with 1N NaOH, osmolarity to 290-300 mOsm with sucrose.
For conventional patch-clamp, 35 mm culture dishes containing hNav1.7 cells were placed on the stage of an inverted microscope and continuously perfused with extracellular solution from a perfusion system (Biologic Rapid solution changer, RSC-160, ˜1 ml/min). […] The recordings were controlled by pCLAMP10 software. […] Compound effect (% inhibition) was determined by difference in current amplitude before and after the application of test compounds. IC50 values were determined from concentration-response curves that were obtained with Hill fitting. […]

Row | SMILES | IC50
1 | CC(C)COc1ncc(-n2cc(C(F)(F)F)c3cc4c(NS(C)(=O)=O)noc4cc32)cc1Cl | 30 nM
2 | CC(C)COc1ncc(-c2ncnc3cc4c(NS(=O)(=O)C5CC5)noc4cc23)cc1Cl | 1800 nM
